The values that follow come from PMC8740163, “Voltage-Gated Sodium Channel Modulation by a New Spider Toxin Ssp1a Isolated From an Australian Theraphosid” (Frontiers in Pharmacology, 2021).

Amino acid sequences for entries named in this document (tags omitted).
UniProt Q14524, whole entry: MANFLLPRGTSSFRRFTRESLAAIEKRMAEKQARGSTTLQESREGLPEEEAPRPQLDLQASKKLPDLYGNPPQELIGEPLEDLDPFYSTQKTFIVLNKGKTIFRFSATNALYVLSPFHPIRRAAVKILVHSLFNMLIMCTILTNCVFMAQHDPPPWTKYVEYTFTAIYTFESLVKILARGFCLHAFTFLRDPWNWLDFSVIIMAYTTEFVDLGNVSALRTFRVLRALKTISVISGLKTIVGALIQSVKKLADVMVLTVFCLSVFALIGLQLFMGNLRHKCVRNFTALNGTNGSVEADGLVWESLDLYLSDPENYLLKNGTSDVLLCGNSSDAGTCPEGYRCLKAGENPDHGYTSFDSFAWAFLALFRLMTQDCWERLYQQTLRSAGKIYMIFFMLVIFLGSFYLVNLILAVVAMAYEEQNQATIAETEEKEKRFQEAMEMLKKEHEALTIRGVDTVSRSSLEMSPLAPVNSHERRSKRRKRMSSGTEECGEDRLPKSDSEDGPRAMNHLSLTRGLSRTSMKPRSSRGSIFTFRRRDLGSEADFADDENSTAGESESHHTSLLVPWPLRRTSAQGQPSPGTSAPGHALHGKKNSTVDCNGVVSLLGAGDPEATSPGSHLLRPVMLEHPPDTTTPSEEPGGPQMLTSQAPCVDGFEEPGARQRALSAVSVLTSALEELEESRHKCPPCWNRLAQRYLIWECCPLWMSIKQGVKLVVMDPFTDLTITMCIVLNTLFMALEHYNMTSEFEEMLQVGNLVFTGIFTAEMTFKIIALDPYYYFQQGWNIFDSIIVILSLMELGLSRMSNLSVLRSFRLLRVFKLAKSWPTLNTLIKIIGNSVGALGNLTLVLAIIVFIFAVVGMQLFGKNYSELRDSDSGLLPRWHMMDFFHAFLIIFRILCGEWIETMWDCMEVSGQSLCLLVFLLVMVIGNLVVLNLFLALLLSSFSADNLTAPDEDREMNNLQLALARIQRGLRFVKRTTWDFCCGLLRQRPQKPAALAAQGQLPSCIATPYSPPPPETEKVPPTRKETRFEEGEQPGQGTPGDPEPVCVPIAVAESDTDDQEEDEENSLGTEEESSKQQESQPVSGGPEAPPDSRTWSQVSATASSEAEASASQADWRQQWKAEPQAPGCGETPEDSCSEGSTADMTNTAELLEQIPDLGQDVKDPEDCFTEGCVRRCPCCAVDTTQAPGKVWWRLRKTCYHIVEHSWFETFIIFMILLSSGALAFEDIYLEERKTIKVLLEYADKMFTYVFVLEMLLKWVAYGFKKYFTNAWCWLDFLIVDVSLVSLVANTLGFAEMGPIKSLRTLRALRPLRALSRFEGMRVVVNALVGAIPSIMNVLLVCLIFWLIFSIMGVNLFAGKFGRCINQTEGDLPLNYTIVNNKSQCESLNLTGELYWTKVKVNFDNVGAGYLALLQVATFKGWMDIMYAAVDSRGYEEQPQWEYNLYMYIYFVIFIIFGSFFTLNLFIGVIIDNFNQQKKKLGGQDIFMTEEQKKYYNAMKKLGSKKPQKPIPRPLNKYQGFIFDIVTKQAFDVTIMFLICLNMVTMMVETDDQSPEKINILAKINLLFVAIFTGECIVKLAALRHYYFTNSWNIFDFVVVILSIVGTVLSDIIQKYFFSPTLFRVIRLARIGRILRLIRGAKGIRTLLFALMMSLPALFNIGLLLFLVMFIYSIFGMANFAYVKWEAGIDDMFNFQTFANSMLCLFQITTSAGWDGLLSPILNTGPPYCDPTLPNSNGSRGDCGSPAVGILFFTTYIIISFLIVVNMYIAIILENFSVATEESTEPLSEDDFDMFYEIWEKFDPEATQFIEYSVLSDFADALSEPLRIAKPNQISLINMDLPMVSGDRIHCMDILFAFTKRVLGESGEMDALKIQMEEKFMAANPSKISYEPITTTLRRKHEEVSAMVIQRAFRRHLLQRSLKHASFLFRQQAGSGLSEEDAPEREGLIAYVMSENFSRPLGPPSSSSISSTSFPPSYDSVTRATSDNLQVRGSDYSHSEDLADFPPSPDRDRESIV
UniProt Q9Y5Y9, whole entry: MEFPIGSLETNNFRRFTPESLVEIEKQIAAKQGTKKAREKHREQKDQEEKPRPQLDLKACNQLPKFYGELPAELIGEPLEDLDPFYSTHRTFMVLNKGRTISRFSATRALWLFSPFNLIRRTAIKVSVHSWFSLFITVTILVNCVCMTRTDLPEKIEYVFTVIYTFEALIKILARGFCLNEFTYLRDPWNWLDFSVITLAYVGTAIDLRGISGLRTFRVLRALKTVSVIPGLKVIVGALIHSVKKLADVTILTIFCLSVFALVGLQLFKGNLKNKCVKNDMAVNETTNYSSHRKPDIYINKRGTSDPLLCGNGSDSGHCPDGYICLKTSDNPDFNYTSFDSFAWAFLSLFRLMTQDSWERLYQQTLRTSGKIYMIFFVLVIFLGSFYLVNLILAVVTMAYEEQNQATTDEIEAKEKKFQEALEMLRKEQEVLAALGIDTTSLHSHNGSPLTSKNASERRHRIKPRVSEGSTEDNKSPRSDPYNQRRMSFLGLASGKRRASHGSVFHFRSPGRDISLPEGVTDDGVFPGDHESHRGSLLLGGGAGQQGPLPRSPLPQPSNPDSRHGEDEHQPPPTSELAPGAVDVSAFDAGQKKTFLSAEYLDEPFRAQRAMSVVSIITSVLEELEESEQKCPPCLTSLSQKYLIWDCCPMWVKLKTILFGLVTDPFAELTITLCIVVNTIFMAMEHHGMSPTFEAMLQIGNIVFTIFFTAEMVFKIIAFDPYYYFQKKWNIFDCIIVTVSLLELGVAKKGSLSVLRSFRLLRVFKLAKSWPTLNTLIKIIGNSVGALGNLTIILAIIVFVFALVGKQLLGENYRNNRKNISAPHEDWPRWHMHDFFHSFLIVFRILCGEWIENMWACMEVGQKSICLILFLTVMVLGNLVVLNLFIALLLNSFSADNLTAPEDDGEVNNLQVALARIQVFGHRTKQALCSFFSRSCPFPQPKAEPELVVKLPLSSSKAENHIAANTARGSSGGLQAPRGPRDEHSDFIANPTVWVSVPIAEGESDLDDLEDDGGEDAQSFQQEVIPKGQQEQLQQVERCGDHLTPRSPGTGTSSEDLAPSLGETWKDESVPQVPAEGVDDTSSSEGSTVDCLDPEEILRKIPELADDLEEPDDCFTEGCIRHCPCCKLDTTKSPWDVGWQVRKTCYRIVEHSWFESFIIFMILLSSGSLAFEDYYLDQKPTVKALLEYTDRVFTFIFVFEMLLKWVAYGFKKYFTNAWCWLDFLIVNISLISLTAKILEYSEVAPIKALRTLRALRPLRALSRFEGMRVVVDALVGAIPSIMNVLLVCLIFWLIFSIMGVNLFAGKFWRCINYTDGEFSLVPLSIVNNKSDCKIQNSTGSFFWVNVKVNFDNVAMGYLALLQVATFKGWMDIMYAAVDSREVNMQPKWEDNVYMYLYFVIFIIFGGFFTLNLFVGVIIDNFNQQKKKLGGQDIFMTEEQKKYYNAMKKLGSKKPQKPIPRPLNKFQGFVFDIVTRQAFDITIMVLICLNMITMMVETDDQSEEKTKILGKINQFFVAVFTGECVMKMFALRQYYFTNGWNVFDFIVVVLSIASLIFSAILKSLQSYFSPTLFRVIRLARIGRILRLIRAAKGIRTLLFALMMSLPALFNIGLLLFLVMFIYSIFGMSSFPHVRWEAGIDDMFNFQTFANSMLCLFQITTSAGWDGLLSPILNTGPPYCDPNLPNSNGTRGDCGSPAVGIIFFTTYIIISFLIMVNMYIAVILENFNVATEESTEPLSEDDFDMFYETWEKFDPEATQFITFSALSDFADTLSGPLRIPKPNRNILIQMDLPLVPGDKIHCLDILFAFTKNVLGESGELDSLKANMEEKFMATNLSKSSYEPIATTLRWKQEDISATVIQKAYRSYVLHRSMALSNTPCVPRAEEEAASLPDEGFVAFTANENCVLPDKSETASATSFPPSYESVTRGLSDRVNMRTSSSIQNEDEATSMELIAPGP
UniProt Q9NY46, whole entry: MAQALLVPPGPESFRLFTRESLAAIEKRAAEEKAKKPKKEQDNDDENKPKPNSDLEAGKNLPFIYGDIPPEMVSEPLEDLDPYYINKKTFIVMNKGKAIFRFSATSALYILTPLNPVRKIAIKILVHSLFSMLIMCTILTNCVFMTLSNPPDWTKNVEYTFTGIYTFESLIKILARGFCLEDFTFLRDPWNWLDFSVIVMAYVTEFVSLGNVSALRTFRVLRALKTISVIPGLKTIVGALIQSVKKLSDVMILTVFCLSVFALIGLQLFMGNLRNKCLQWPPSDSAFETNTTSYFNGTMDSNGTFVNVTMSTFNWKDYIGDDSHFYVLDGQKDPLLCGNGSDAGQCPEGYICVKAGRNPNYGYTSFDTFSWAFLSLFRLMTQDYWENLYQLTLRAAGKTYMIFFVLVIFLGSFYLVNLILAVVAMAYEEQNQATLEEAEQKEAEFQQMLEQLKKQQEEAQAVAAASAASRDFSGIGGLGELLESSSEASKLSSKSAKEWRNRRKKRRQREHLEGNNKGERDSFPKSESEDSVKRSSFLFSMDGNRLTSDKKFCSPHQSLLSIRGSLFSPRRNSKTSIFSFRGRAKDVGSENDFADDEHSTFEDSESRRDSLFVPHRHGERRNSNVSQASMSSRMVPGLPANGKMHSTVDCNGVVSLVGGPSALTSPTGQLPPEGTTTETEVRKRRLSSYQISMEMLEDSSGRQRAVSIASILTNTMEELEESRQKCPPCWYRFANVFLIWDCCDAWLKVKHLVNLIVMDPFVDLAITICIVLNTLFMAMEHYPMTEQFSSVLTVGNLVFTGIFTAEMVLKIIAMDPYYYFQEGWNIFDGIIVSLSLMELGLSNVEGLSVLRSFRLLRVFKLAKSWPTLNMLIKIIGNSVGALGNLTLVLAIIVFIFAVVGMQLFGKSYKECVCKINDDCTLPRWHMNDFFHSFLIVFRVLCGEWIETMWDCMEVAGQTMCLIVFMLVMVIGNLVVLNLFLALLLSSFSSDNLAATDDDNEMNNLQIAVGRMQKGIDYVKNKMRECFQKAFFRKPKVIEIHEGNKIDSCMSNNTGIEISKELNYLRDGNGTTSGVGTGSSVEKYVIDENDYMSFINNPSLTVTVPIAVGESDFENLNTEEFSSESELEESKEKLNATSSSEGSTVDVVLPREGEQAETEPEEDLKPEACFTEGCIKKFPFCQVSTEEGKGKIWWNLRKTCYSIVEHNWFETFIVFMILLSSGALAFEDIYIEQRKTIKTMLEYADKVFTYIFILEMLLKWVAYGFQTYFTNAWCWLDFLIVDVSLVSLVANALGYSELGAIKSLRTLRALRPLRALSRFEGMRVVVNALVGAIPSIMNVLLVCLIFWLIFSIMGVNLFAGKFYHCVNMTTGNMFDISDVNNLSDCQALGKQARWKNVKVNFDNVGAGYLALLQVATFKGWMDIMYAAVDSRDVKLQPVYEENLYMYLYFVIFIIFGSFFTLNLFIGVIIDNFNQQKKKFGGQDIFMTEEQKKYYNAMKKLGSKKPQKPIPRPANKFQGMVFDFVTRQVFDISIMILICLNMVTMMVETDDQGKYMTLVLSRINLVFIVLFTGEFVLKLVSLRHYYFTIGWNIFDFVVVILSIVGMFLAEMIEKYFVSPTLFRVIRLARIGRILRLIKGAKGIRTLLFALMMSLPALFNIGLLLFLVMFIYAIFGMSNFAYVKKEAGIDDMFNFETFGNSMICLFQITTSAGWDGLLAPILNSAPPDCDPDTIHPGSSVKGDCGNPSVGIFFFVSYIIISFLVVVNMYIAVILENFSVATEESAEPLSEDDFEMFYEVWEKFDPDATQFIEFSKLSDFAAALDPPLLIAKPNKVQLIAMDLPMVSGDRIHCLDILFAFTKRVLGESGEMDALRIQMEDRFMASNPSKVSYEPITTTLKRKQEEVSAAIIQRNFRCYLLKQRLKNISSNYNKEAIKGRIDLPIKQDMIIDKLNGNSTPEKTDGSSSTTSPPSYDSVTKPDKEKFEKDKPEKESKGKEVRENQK

Common to all, as to format: cell-based
The target of assay [1] is T1, hNaV1.7 (Homo sapiens, UniProt Q15858). Kind of assay: Voltage-dependence of activation and steady-state fast inactivation, hNaV1.7. To be noted: rSsp1a 130 nM, peak current reduced, mean ± SEM, n = 3–4. As to the method: (§1) The HEK293 cells stably expressing hNaV1.1–1.7/β1 and CHO cells stably expressing hNaV1.8/β3 were prepared following manufacturer’s guidelines. After 48 h of incubation to achieve ∼80% confluency, cells were detached using Detachin (Genlantis) and resuspended to 5 × 10^6 cells/mL in serum free media (CHO-cell SFM (Life Technologies), 25 mM HEPES and 100 U/mL penicillin/streptomycin). As hNaV1.8 expression in CHO cells is tetracycline inducible, the cells were further cultured for 24 h at 27°C in the presence of tetracycline (1 μg/ml). […] The mean seal resistance was 658 MΩ (95% confidence interval: 557–759 MΩ) while series resistance (Rs) was maintained below 10 MΩ with a mean for the last measured series resistance of 7 MΩ (95% confidence interval: 6.7–7.5 MΩ) with no compensation except for current-voltage experiments on hNaV1.2 and hNaV1.7, where fast Rs was compensated by 70%.
(§2) The voltage protocols to determine voltage-dependence of activation and fast inactivation were combined, with cells held at −90 mV for 150 ms followed by step pulses from −110 mV to +75 mV in 5 mV increments to elicit the Na^+ currents and determine voltage-dependence of activation. […] The calculated kobs were plotted against their corresponding concentration to obtain a linear curve-fit where the slope of the curve represented the actual kon ([Dowling and Charlton, 2006]; [Pierre, 2011]). […]

Assay [2] deals with T1, hNaV1.7. Description: Automated whole-cell patch clamp (QPatch 16X), hNaV1.7. To be noted: HEK293 hNaV1.7/β1; holding −80 mV, 20 ms step to 0 mV from −120 mV (200 ms); 2 min incubation; mean ± SEM (n = 4–12). As to the method: (§3) Cell culture reagents were from Life Technologies Corporation, CA, United States, unless otherwise stated. The human neuroblastoma cell line SHSY5Y was cultured in Roswell Park Memorial Institute (RPMI) medium supplemented with 15% fetal bovine serum (FBS) and 2 mM L-glutamine. Human embryonic kidney 293 (HEK293) cells stably expressing recombinant hNaV1.1–1.7 and the β1 auxiliary subunit (Scottish Biomedical Drug Discovery, Glasgow, United Kingdom) was cultured in Minimal Essential medium (MEM) (Sigma-Aldrich, MO, United States) supplemented with 10% v/v FBS-New Zealand origin (Assay Matrix), 2 mM L-glutamine and selection antibiotics as per manufacturer’s recommendation. Chinese hamster ovary (CHO) cells stably expressing hNaV1.8/β3 (ChanTest, Cleveland, United States) were cultured in MEM containing 10% v/v FBS and selection antibiotics as per manufacturer’s recommendation. […]
(§4) The HEK293 cells stably expressing hNaV1.1–1.7/β1 and CHO cells stably expressing hNaV1.8/β3 were prepared following manufacturer’s guidelines. […] The mean seal resistance was 658 MΩ (95% confidence interval: 557–759 MΩ) while series resistance (Rs) was maintained below 10 MΩ with a mean for the last measured series resistance of 7 MΩ (95% confidence interval: 6.7–7.5 MΩ) with no compensation except for current-voltage experiments on hNaV1.2 and hNaV1.7, where fast Rs was compensated by 70%. […]
Background: The patch-clamp technique gives a direct electrical read-out from membranes.

Assay [3] deals with T1, hNaV1.7. Description: Voltage-dependent inhibition of hNaV1.7 at 0 and 50 mV test pulse. To be noted: 255 nM (IC70) rSsp1a, n = 4, read-out: inhibition of hNaV1.7 channels at depolarisation to +50 mV. As to the method:
as §1, with “μg/ml). The electrophysiology experiments were conducted using the automated whole-cell patch clamp technology (QPatch 16X; Sophion Bioscience A/S, Ballerup, Denmark) as previously described ([Cardoso et al., 2015]; [Cardoso et al., 2017]) using QPlates with single patch hole/well for hNaV1.1–1.7 and 10 patch hole/well for hNaV1.8. The extracellular solution comprised (in mM) 1 CaCl2, 1 MgCl2, 5 HEPES, 3 KCl, 140 NaCl and 20 TEA-Cl with pH adjusted to 7.3 with NaOH.” for “μg/ml).”, “70%. […]” for “70%.”

Assay [4] deals with hNaV1.5 (Homo sapiens, UniProt Q14524). Kind of assay: Automated whole-cell patch clamp (QPatch 16X), hNaV1.5. As to the method:
as §3, §4

Assay [5] addresses T2, hNaV1.2 (Homo sapiens, UniProt Q99250). Kind of assay: On-rate and off-rate, hNaV1.2. As to the method:
as §1, with “μg/ml). The electrophysiology experiments were conducted using the automated whole-cell patch clamp technology (QPatch 16X; Sophion Bioscience A/S, Ballerup, Denmark) as previously described ([Cardoso et al., 2015]; [Cardoso et al., 2017]) using QPlates with single patch hole/well for hNaV1.1–1.7 and 10 patch hole/well for hNaV1.8. The extracellular solution comprised (in mM) 1 CaCl2, 1 MgCl2, 5 HEPES, 3 KCl, 140 NaCl and 20 TEA-Cl with pH adjusted to 7.3 with NaOH.” for “μg/ml).”
(§5) The voltage protocols to determine voltage-dependence of activation and fast inactivation were combined, with cells held at −90 mV for 150 ms followed by step pulses from −110 mV to +75 mV in 5 mV increments to elicit the Na^+ currents and determine voltage-dependence of activation. […] For on-rate experiments, cells were maintained at a holding potential −80 mV and Na^+ currents elicited by 20 ms voltage steps to 0 mV from a −120 mV conditioning pulse applied for 200 ms at 10 s interval for 300 s after addition of rSsp1a at 1x, 3x and 10x its IC50 at each hNaV subtype analysed. […] The off-rate (koff) and dissociation constant (Kd) values at three hNaV subtypes were calculated using koff = 1/τoff (s^−1) and Kd = koff/kon (nM). […]

The target of assay [6] is T2, hNaV1.2. Kind of assay: Voltage-dependence of activation and steady-state fast inactivation, hNaV1.2. As to conditions: rSsp1a 250 nM, peak current reduced, mean ± SEM, n = 3–4. As to the method: as §1, §2
For assay [7], the target named is hNaV1.4 (Homo sapiens, UniProt P35499). Description: Automated whole-cell patch clamp (QPatch 16X), hNaV1.4. As to the method: as §3, §4
Assay [8] has as its target hNaV1.8 (Homo sapiens, UniProt Q9Y5Y9). Description: Automated whole-cell patch clamp (QPatch 16X), hNaV1.8 in CHO cells. As to the method:
as §3, §4

For assay [9], the target named is T1, hNaV1.7. Kind of assay: Effect of strong depolarizations on rSsp1a-bound hNaV1.7. To be noted: +160 mV; 2 μM rSsp1a; modified solutions; n = 5.
In assay [10] the target is hNaV1.1 (Homo sapiens, UniProt P35498). Kind of assay: Automated whole-cell patch clamp (QPatch 16X), hNaV1.1. To be noted: HEK293 hNaV1.1/β1; holding −80 mV, 20 ms step to 0 mV from −120 mV (200 ms); 2 min incubation; mean ± SEM (n = 4–12). As to the method: as §3, §4
Assay [11] concerns the target T3, hNaV1.3 (Homo sapiens, UniProt Q9NY46). Description: On-rate and off-rate, hNaV1.3. As to the method: as §1, with “μg/ml). The electrophysiology experiments were conducted using the automated whole-cell patch clamp technology (QPatch 16X; Sophion Bioscience A/S, Ballerup, Denmark) as previously described ([Cardoso et al., 2015]; [Cardoso et al., 2017]) using QPlates with single patch hole/well for hNaV1.1–1.7 and 10 patch hole/well for hNaV1.8. The extracellular solution comprised (in mM) 1 CaCl2, 1 MgCl2, 5 HEPES, 3 KCl, 140 NaCl and 20 TEA-Cl with pH adjusted to 7.3 with NaOH.” for “μg/ml).”
as §5

In assay [12] the target is T1, hNaV1.7. Description: On-rate and off-rate, hNaV1.7. As to the method:
as §1, with “μg/ml). The electrophysiology experiments were conducted using the automated whole-cell patch clamp technology (QPatch 16X; Sophion Bioscience A/S, Ballerup, Denmark) as previously described ([Cardoso et al., 2015]; [Cardoso et al., 2017]) using QPlates with single patch hole/well for hNaV1.1–1.7 and 10 patch hole/well for hNaV1.8. The extracellular solution comprised (in mM) 1 CaCl2, 1 MgCl2, 5 HEPES, 3 KCl, 140 NaCl and 20 TEA-Cl with pH adjusted to 7.3 with NaOH.” for “μg/ml).”
as §5

Assay [13] has as its target T2, hNaV1.2. Kind of assay: Automated whole-cell patch clamp (QPatch 16X), hNaV1.2. To be noted: HEK293 hNaV1.2/β1; holding −80 mV, 20 ms step to 0 mV from −120 mV (200 ms); 2 min incubation; mean ± SEM (n = 4–12). As to the method: as §3, §4
Assay [14] has as its target T3, hNaV1.3. Kind of assay: Automated whole-cell patch clamp (QPatch 16X), hNaV1.3. As to conditions: HEK293 hNaV1.3/β1; holding −80 mV, 20 ms step to 0 mV from −120 mV (200 ms); 2 min incubation; mean ± SEM (n = 4–12). As to the method:
as §3, §4

The target of assay [15] is T3, hNaV1.3. Description: Voltage-dependence of activation and steady-state fast inactivation, hNaV1.3. To be noted: rSsp1a 500 nM (panel hNaV1.3; legend prints hNaV1.4); peak current reduced; mean ± SEM, n = 3–4. As to the method: as §1, §2
Setting [16] is: slope of kobs vs concentration (three concentrations).
Setting [17] is: whole-cell automated patch clamp.

The term IC50 denotes the midpoint of a concentration-inhibition curve. Read a low IC50 as greater potency in that assay. A word on the inhibition: it is how much of the control response was suppressed. Usually koff stands for the rate constant with which the complex falls apart. A low value points to a long-lived complex. The kon is the second-order rate constant of association. For the compound `CC(C)C[C@H](NC(=O)[C@H](CC(=O)O)NC(=O)[C@H](Cc1ccc(O)cc1)NC(=O)[C@H](CCCNC(=N)N)NC(=O)[C@@H]1CSSC[C@@H]2NC(=O)[C@H](CCCCN)NC(=O)[C@H](CC(N)=O)NC(=O)[C@H](CC(N)=O)NC(=O)[C@H](CC(N)=O)NC(=O)[C@@H]3CCCN3C(=O)[C@H](CC(=O)O)NC(=O)[C@@H]3CSSC[C@H](NC(=O)[C@H](C(C)C)NC(=O)[C@H](Cc4ccc(O)cc4)NC(=O)CNC(=O)[C@H](CCC(=O)O)NC(=O)[C@H](CSSC[C@H](NC(=O)[C@H](CC(=O)O)NC(=O)CN)C(=O)N[C@@H](CC(C)C)C(=O)NCC(=O)N[C@@H](Cc4c[nH]c5ccccc45)C(=O)N[C@@H](Cc4ccccc4)C(=O)N[C@@H](CO)C(=O)NCC(=O)N3)NC2=O)C(=O)N[C@@H](Cc2c[nH]cn2)C(=O)N[C@@H](Cc2c[nH]c3ccccc23)C(=O)N[C@@H](CCCCN)C(=O)N[C@@H](Cc2ccc(O)cc2)C(=O)N2CCC[C@H]2C(=O)N[C@@H](Cc2c[nH]c3ccccc23)C(=O)N1)C(=O)O` [rSsp1a], the “current-voltage relationship, effect of ~IC50 rSsp1a” value was “without significantly affecting the activation threshold, activation voltage and reversal potential” in assay [1]; “without significantly affecting the activation threshold, activation voltage and reversal potential” in assay [6]; “without significantly affecting the activation threshold, activation voltage and reversal potential” in assay [15]. Further, the IC50 is 134 ± 9 nM in [2]; above 3000 nM in [4] (HEK293 hNaV1.5/β1, holding −80 mV, 20 ms step to 0 mV from −120 mV (200 ms), 2 min incubation, n = 4–12); above 3000 nM in assay [7] (HEK293 hNaV1.4/β1, holding −80 mV, 20 ms step to 0 mV from −120 mV (200 ms), 2 min incubation, n = 4–12); above 9000 nM in assay [8] (CHO hNaV1.8/β3, holding −90 mV, 50 ms step to +10 mV from −90 mV (150 ms), n = 4–12); 674 ± 104 nM in assay [10]; 239 ± 26 nM in [13]. Also, the IC50 in assay [14] was 547 ± 70 nM. The inhibition at 0.255 µM in assay [3] was around 40%. The “block of hNaV1.5 current” value in [4] (3 μM rSsp1a, HEK293) is on record as around 60%. The “channels recovering from block after washout” value is around 25% in assay [5] (250 nM, 30-min washout, n = 6); around 50% in assay [11] (500 nM, 30-min washout, n = 6); around 40% in [12] (130 nM, 30-min washout, n = 4). The koff in assay [5] (koff = 1/τoff, 250 nM, 5 min incubation, 30 min washout, n = 6) amounted to 0.000298 s⁻¹; in assay [11] (koff = 1/τoff, 500 nM, 5 min incubation, 30 min washout, n = 6), 0.000413 s⁻¹; in [12] (koff = 1/τoff, 130 nM, 5 min incubation, 30 min washout, n = 4) it was 0.000393 s⁻¹. The figures for the kon in assay [5] (setting [16]), in [11] (setting [16]) and in assay [12] (setting [16]) were 15300 M⁻¹ s⁻¹, 11200 M⁻¹ s⁻¹ and 17500 M⁻¹ s⁻¹, respectively. For the same compound, the “activity at hNaV1.4 (discussion)” value in assay [7] (setting [17]) was “inactive”. The “activity at hNaV1.8 (discussion)” value in assay [8] (setting [17]) is “inactive”. Further, the “outward current of rSsp1a-bound hNaV1.7 relative to before rSsp1a” value in [9] was around 21%.
